# From paper PMC6968506, “Synthesis, in vitro screening and molecular docking of isoquinolinium-5-carbaldoximes as acetylcholinesterase and butyrylcholinesterase reactivators” (2020)
# Columns and labels:
# [1] = biological target: VX-hAChE (human erythrocyte AChE) (Homo sapiens, UniProt P22303); assay: Reactivation of VX-inhibited hAChE; details: 10 min, 37 °C
# [2] = biological target: Sarin-hAChE (human erythrocyte AChE) (Homo sapiens, UniProt P22303); assay: Reactivation of sarin-inhibited hAChE; details: 10 min, 37 °C
smiles,measurement,setting,value
NC(=O)c1cc[n+](CCC[n+]2ccc3c(C=NO)cccc3c2)cc1.[Br-].[Br-],VX-hAChE % reactivation ± SD,[1]; oxime 10 µM,0.76 ± 0.16%
same,VX-hAChE % reactivation ± SD,[1]; oxime 100 µM,2.83 ± 0.16%
same,Sarin-hAChE % reactivation ± SD,[2]; oxime 10 µM,1.23 ± 0.35%
same,Sarin-hAChE % reactivation ± SD,[2]; oxime 100 µM,2.46 ± 0.2%
